System: glyphosate resistant Conyza canadensis (L.) (ERICA), horseweed
Assay: Postemergence herbicide evaluation, growth of Conyza canadensis (ERICA)
Format: in vivo
Details: for Ave. ERICA: percent reduction in plant size vs untreated control

SMILES | Ave. ERICA (280 g ae/ha, 21 DAA) | Ave. ERICA (560 g ae/ha, 21 DAA) | Ave. ERICA (280 g ae/ha, 14 DAA) | Ave. ERICA (560 g ae/ha, 14 DAA) | other results
O=C(COc1ccc(Cl)cc1Cl)OCc1ccc(COC(=O)COc2ccc(Cl)cc2Cl)cc1 [Compound B1, 1,4-Phenylenebis(methylene) bis(2-(2,4-dichlorophenoxy)acetate)] | – | – | – | – | Ave. ERICA, percent reduction in plant size relative to the untreated control (280 g ae/ha, 14 DAA): 30%; Ave. ERICA, percent reduction in plant size relative to the untreated control (280 g ae/ha, 21 DAA): 8%; Ave. ERICA, percent reduction in plant size relative to the untreated control (560 g ae/ha, 7 DAA): 28%
O=C(COc1ccc(Cl)cc1Cl)OCCCCCOC(=O)COc1ccc(Cl)cc1Cl [Compound B8] | 98.5% | 100% | – | – | –
O=C(COc1ccc(Cl)cc1Cl)OCCOC(=O)COc1ccc(Cl)cc1Cl [Compound B9] | 96.5% | 99.5% | 100% | 93% | –
O=C(COc1ccc(Cl)cc1Cl)OCCCOC(=O)COc1ccc(Cl)cc1Cl [Compound B10] | 90% | 97.5% | – | 79.5% | –
O=C(COc1ccc(Cl)cc1Cl)OCCCCCCOC(=O)COc1ccc(Cl)cc1Cl [Compound B12] | 96% | 97% | – | – | –
O=C(COc1ccc(Cl)cc1Cl)OCCOCCOCCOC(=O)COc1ccc(Cl)cc1Cl [Compound B13] | – | – | 91.5% | – | Ave. ERICA (280 g ae/ha, 7 DAA): 85%
O=C(COc1ccc(Cl)cc1Cl)OCCOCCOCCOCCOC(=O)COc1ccc(Cl)cc1Cl [Compound B14] | – | – | 100% | 100% | Ave. ERICA (280 g ae/ha, 7 DAA): 85%
